Among the data in ChEMBL document CHEMBL3244335 (J Med Chem, 1977) are pKa values, retold here.

A word on the pKa: it is the pH at which an ionisable group is half protonated.

A short description of this data set: Ionization constant, pKa of the compound. In kind it is physicochemical.

With `N=C(N)N[N+](=O)[O-]`, the pKa was -0.9.
